From paper PMC9264368, “Structural Analysis and Development of Notum Fragment Screening Hits” (ACS Chemical Neuroscience, 2022)

By UniProt entry, the sequences of proteins in these tests, tags left out. Residues count along the entry.
UniProt Q6P988, 81-451 C330S limits assumed: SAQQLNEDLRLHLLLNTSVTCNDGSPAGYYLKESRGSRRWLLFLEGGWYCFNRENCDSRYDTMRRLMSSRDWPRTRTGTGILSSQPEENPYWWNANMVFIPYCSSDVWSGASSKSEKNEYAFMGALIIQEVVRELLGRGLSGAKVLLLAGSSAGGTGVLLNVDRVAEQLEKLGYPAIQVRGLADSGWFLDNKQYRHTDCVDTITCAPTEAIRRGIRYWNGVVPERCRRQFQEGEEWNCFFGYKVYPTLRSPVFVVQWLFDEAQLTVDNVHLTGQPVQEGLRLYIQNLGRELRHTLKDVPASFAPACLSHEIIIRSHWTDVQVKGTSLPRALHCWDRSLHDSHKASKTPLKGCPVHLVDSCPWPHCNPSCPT

Biological target: Notum (Homo sapiens, UniProt Q6P988, C330S)

| SMILES | IC50 |
| --- | --- |
| c1cncc(CNCc2ccc3c(c2)OCO3)c1 | > 1000 µM |
| O=C(NCc1ccc2c(c1)OCO2)c1ccc(Cl)c(C(F)(F)F)c1 | 51 µM |
| Cc1ccccc1CNCc1ccc2c(c1)OCO2 | 120 µM |
| O=C(NCc1ccc2c(c1)OCO2)c1ccccn1 | 840 µM |
| Cc1ccccc1CN(C)Cc1ccc2c(c1)OCO2 | 560 µM |
| Cc1ccc(CNCc2ccc3c(c2)OCO3)o1 | 460 µM |

Other lines, results leading:

| IC50 | SMILES |
| --- | --- |
| 250 µM | c1ccc(CNCc2ccc3c(c2)OCO3)cc1 |
| 19 µM | Clc1cccc(-c2cc[nH]n2)c1 |
| 5.4 µM | Clc1ccc(-c2cc[nH]n2)cc1Cl |
| 16 µM | Fc1ccc(-c2cc[nH]n2)cc1F |
| 170 µM | c1ccc(-c2cc[nH]n2)cc1 |
| 710 µM | CN(Cc1ccc2c(c1)OCO2)Cc1ccccn1 |
